This test has as its target Galectin-1 (Homo sapiens, UniProt P09382). The experiment in a line: Binding affinity to galectin-1 (unknown origin) by fluorescence polarization assay. On the technique in general: In fluorescence polarisation assays a small probe gives low polarisation when free and higher when bound to something large.

Protein sequences, listed by entry. Tags and fused reporters are not part of them.
UniProt P09382, whole entry: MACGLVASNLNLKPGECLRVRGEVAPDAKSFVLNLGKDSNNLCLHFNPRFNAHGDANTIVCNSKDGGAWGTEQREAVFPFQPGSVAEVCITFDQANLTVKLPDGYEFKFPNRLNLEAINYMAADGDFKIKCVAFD

The structures appear in SMILES notation.

Consider `OC[C@H]1O[C@@H](S[C@@H]2O[C@H](CO)[C@H](O)[C@H](O)[C@H]2O)[C@H](O)[C@@H](O)[C@H]1O` [THIODIGALACTOSIDE], for which the Kd (in general, a measure of binding affinity in units of concentration) was 24 µM.

The values above are taken from ChEMBL document CHEMBL2311254, “Tuning the preference of thiodigalactoside- and lactosamine-based ligands to galectin-3 over galectin-1” (J Med Chem, 2013).
